From ChEMBL document CHEMBL6182899, “Shooting an Arrow against Convulsion: Novel Triazole-Grafted Benzenesulfonamide Derivatives as Carbonic Anhydrase II and VII Inhibitors” (J Med Chem, 2025)

Test system: Mus musculus
Type: functional, organism-based
Conditions: dose 100.0 mg/kg, route ip, time 30.0 min; call rule not given here

CCCC(CCC)C(=O)O [VALPROIC ACID]
Activity: Not active; Moderate Nuclear Pyknosis Observed
